We go through one compound from publication PMC5796218 (International Journal of Molecular Sciences, 2018).

Chains of the proteins cited; added tags and fusions are not shown. Lines headed by an entry give the natural chain unless they say otherwise; changes in a name come on top.
UniProt P35367: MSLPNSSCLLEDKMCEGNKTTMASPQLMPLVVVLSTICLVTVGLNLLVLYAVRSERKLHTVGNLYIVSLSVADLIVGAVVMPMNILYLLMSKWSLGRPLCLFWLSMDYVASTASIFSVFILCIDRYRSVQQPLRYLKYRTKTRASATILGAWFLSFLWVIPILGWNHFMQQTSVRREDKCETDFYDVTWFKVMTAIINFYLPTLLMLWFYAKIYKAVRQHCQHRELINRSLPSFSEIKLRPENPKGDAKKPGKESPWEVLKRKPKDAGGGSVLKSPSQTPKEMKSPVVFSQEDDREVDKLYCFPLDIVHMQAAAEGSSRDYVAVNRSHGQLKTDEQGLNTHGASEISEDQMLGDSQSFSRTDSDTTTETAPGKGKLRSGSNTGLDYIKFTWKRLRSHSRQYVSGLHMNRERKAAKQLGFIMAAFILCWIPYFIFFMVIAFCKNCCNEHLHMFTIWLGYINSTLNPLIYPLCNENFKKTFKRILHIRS
UniProt P07550: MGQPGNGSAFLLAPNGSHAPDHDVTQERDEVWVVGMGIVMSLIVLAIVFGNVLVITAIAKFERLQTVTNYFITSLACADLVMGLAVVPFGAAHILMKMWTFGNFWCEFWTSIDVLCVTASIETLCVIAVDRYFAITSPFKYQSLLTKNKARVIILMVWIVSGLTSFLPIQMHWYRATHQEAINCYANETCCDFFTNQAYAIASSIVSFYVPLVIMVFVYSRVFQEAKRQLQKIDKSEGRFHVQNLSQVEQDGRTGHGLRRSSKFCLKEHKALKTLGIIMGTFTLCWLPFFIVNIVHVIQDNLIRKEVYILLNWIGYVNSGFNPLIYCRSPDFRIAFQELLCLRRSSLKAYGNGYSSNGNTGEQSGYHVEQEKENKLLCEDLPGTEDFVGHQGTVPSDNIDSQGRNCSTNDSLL

The target of experiment [1] is HIST 177–183 peptide (histamine 1 receptor) (Homo sapiens, UniProt P35367). The experiment can be described thus: biochemical.
In experiment [2] the target is HIST 166–172 peptide (histamine 1 receptor) (Homo sapiens, UniProt P35367). To be noted: read-out: Kd (µM) @ 200 nm, low-affinity component.
In experiment [3] the target is B2AR 175–188 peptide (β-2-adrenergic receptor) (Homo sapiens, UniProt P07550). Kind of experiment: biochemical.

Structures are written as SMILES. Structures can show the parent of a compound that is named as a salt.

With `CN1CC[C@]23c4c5ccc(O)c4O[C@H]2[C@@H](O)C=C[C@H]3[C@H]1C5` [Morph, morphine sulfate], the figures for the dissociation constant (Kd) in experiment [1], in experiment [2] and in experiment [3] were 30 µM, 30 µM and 50 µM, respectively.

In general, Kd refers to a measure of binding affinity in units of concentration.
